The values below come from US9242969B2, “Biaryl amide compounds as kinase inhibitors” (Novartis AG, priority 2013, dated 2016).

pIC50: −log10 of the molar value.

This assay deals with C-Raf TR (Δ1-324 deletion mutant with activating mutations) (Homo sapiens (Human), UniProt P04049, Y340E/Y341E). It counts as biochemical. The note with it: truncated C-Raf (Δ1-324), ATP 3 uM, 10 nM biotinylated MEK1 kinase dead.

Substance “3-(2-(1,1-dioxidothiomorpholino)-6-morpholinopyrimidin-4-yl)-4-methyl-N-(3-(trifluoromethyl)phenyl)benzamide [Example 9]” showed a pIC50 of 9.05.

Substance “4-methyl-3-(4-morpholinopyridin-2-yl)-N-(3-(trifluoromethyl)phenyl)benzamide [Example 64]” had a negative-log IC50 (pIC50) of 9.07.

“N-(4-methyl-3-(4-morpholinopyridin-2-yl)phenyl)-3-(trifluoromethyl)benzamide [Example 111]” gave a pIC50 of 9.39.
